Among the data in ChEMBL document CHEMBL3886874, “Substituted aza-bicyclic imidazole derivatives useful as TRPM8 receptor modulators” (2016) are IC50 values, retold here.

Chains of the proteins cited; added tags and fusions are not shown.
UniProt Q1A7N1, whole entry: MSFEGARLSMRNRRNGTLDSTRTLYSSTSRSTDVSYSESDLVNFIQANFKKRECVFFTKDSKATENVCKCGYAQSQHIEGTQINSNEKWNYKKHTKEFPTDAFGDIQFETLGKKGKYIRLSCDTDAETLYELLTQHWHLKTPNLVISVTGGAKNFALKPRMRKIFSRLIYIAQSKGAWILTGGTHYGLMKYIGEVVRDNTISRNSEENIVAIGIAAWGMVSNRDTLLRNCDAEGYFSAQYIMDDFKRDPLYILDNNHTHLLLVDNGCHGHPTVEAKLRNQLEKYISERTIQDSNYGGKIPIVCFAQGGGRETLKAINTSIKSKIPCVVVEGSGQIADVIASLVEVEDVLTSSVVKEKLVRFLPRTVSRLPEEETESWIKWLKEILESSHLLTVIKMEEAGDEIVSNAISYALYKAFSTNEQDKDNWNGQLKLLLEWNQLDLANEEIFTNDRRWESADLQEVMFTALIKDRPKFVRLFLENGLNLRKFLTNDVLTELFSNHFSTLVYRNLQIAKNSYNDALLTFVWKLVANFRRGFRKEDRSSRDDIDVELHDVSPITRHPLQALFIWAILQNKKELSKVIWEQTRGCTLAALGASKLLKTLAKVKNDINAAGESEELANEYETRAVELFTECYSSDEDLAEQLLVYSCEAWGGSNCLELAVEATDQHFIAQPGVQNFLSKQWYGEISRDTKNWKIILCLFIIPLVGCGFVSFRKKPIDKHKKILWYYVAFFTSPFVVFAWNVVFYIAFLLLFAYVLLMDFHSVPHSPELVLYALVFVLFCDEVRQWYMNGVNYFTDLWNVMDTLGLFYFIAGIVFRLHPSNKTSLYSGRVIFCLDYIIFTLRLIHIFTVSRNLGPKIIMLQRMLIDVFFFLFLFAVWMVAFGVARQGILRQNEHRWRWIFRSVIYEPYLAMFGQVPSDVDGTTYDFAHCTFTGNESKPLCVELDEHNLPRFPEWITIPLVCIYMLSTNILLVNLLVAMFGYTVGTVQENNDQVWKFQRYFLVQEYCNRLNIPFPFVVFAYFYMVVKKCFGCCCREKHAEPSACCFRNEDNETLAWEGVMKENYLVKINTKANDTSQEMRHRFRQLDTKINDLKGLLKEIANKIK

This test addresses Transient receptor potential M8 protein (Canis lupus familiaris, UniProt Q1A7N1). Briefly: Functional Assay: HEK293 cells stably expressing canine TRPM8 were routinely grown as monolayers in Dulbecco's minimum essential medium supplemented with 10% FBS, 2 mM L-glutamine, 100 units/mL penicillin, 100 μg/mL streptomycin and 400 μg/mL G418. Cells were maintained in 5% CO2 at 37° C. At 24 hr prior to assay, cells were seeded in black wall, clear-base poly-D-lysine coated 384-well plates (BD Biosciences, NJ, USA) at a density of 5,000 cells per well in culture medium and grown overnight in 5% CO2 at 37° C. On assay day, growth media was removed, and cells were loaded with Calcium 3 Dye (Molecular Devices) for 35 min at 37° C., under 5% CO2 and then incubated for 25 min at room temperature and atmosphere. Subsequently, cells were tested for agonist-induced increases in intracellular Ca2+ levels using FLIPR™ or FDSS. Cells were treated with compounds of the formula (I) at varying concentrations and intracellular Ca2+ was measured for 5 min prior to the addition of icilin to each well to achieve a final concentration that produces an approximately 80% maximal response. It counts as cell-based.

SMILES strings stand for the structures.

A word on the IC50: it is the midpoint of a concentration-inhibition curve. As for `COc1nc(-c2c(Cl)cccc2Cl)cc2nc(-c3c(Cl)c(C(C)(C)C)nn3C)[nH]c12`, the IC50 was 5.4 nM.
